Target: rat mGlu5 (Rattus norvegicus, UniProt P31424)
Test: Calcium mobilization mGlu5 assay
Format: cell-based
Details: HEK293A cells expressing rat mGlu5; EC80 glutamate; average of n ≥ 3

By UniProt entry, the sequences of proteins in these tests, tags left out. Residues count along the entry.
UniProt P31424, 21-1203: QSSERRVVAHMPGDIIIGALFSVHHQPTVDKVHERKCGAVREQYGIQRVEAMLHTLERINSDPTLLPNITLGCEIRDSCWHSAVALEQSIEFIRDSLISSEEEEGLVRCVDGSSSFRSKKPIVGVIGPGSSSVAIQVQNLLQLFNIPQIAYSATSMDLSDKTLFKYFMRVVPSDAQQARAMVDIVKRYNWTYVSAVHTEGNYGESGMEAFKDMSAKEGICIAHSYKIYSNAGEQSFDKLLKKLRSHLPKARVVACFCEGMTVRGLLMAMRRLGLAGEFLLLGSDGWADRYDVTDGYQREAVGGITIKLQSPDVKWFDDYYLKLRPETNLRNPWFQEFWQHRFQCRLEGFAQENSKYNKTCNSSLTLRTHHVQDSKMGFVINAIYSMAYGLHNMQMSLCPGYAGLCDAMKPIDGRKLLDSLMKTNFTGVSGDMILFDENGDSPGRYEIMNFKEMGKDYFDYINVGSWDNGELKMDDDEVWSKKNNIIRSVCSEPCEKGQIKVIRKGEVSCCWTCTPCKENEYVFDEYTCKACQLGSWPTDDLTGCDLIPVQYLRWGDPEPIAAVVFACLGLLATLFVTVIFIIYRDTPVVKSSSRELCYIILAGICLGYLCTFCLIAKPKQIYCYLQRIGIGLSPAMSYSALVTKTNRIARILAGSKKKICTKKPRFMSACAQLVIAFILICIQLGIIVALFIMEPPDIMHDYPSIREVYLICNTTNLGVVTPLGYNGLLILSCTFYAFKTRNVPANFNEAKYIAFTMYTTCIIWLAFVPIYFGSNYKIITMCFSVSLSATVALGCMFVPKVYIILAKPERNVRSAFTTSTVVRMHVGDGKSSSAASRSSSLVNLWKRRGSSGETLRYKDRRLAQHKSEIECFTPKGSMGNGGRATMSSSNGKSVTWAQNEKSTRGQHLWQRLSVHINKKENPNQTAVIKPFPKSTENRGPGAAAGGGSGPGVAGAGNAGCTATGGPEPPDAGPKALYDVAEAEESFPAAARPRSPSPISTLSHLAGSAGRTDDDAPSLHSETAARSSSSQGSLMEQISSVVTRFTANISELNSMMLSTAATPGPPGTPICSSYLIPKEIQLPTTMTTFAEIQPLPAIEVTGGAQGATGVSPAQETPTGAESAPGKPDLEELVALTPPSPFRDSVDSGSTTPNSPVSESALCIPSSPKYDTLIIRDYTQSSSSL

## Cc1nc(NC(=O)c2cccc(Oc3cccnc3)c2)nn1C [Compound 21]
  mGlu5 pIC50 (± SEM): < 4.5

— PMC3846293 (Bioorganic & medicinal chemistry letters, 2013)
